Data as given in ChEMBL document CHEMBL3817788, “Natural cholinesterase inhibitors from Myristica cinnamomea King” (Bioorg Med Chem Lett, 2016).

Sequences of proteins named here, by UniProt entry; tags and fusion partners are left off.
UniProt P81908, whole entry: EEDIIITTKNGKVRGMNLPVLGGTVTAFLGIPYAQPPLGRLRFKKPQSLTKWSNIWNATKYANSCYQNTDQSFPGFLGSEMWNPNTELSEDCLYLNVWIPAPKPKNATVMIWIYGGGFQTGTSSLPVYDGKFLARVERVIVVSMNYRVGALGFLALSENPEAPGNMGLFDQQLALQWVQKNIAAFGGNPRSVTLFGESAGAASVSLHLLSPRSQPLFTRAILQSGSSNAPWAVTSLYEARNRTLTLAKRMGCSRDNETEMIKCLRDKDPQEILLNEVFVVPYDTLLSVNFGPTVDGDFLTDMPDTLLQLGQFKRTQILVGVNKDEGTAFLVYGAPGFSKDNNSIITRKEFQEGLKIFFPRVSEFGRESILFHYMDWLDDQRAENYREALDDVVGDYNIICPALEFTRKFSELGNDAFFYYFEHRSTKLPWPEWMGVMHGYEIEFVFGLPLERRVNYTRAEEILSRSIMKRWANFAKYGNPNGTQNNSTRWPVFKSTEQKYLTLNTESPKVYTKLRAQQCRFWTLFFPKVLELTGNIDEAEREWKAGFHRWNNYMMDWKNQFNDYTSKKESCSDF

Target: Cholinesterase (Equus caballus, UniProt P81908)
Test: Inhibition of equine serum BChE using S-butyrylthiocholine chloride as substrate incubated for 30 mins by Ellman's microplate assay

## CNC(=O)Oc1ccc2c(c1)[C@]1(C)CCN(C)[C@@H]1N2C [PHYSOSTIGMINE]
  IC50: 220 nM
